In paper PMC3366976, “Tuning the Drug Efflux Activity of an ABC Transporter in vivo by in vitro Selected DARPin Binders” (PLoS ONE, 2012):

Test system: Nc1ncnc2c1ncn2[C@@H]1O[C@H](COP(=O)(O)OP(=O)(O)OP(=O)(O)O)[C@@H](O)[C@H]1O
Experiment: purified protein
Conditions: non-binding control DARPin E3_5 present (2.5 µM), 10 mM MgSO4, 50 mM K-HEPES pH 7.0, 30°C, Hill coefficient fitted

LmrCD (Lactococcus cremoris subsp. cremoris MG1363; A2RI37:C179R)
K0.5: 0.73 ± 0.09 mM
